Results: patent US20110183980A1, “O-BENZYL NICOTINAMIDE ANALOGS AS MGLUR5 POSITIVE ALLOSTERIC MODULATORS” (priority 2009, published 2011)

By UniProt entry, the sequences of proteins in these tests, tags left out. Residues count along the entry.
UniProt P31424, 21-1203 limits assumed: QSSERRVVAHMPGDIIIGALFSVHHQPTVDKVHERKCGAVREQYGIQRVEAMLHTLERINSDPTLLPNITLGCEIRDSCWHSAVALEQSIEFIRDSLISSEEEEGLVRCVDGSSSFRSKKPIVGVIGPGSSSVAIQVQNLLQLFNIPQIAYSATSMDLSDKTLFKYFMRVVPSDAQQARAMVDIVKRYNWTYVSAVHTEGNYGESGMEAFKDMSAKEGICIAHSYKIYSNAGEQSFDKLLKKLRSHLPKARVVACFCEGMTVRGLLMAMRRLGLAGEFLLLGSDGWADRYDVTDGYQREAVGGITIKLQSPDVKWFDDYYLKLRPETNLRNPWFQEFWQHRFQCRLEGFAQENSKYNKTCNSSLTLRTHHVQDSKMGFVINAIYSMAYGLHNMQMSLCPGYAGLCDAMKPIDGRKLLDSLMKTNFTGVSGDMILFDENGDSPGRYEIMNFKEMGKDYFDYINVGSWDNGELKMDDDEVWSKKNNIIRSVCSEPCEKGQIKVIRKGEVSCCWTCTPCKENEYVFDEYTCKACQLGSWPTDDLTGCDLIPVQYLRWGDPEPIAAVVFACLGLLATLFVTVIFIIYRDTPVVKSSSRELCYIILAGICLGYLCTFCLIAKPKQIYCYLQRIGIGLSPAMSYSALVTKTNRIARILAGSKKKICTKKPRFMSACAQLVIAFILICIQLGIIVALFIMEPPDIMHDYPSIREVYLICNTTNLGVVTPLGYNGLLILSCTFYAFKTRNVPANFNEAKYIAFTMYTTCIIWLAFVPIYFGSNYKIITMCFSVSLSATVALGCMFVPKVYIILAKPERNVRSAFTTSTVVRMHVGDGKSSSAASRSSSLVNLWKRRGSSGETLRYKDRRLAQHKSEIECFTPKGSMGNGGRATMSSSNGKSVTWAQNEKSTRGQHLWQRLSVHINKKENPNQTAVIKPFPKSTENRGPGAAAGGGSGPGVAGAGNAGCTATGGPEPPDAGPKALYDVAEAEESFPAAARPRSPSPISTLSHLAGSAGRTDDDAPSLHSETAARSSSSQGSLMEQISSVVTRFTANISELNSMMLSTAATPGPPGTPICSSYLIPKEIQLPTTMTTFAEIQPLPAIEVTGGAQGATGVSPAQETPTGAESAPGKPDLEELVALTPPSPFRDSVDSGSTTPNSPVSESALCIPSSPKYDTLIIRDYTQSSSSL

Molecular target: rat mGluR5 (Rattus norvegicus, UniProt P31424)
Experiment: Potentiation of glutamate response, Ca2+ fluorescence (FDSS) in HEK cells transfected with rat mGluR5
Settings: read-out: EC50 as an mGluR5 potentiator
Procedure: Human embryonic kidney (HEK) cells transfected with rat mGluR5 were plated in clear bottom assay plates for assay in a Functional Drug Screening System (FDSS). The cells were loaded with a Ca^2+-sensitive fluorescent dye (e.g., Fluo-4), and the plates were washed and placed in the FDSS instrument. After establishment of a fluorescence baseline for twelve seconds, the compounds of the present invention were added to the cells, and the response in cells was measured. Five minutes later, an mGluR5 agonist (e.g., glutamate, 3,5-dihydroxyphenylglycine, or quisqualate) was added to the cells, and the response of the cells was measured. […]
The above described assay operated in two modes. […] If a compound acted as a potentiator, an EC50 value for potentiation and a maximum extent of potentiation by the compound at this concentration of agonist was determined by non-linear curve fitting. In the second mode, several fixed concentrations of the present compounds were added to various wells on a plate, followed by a range of concentrations of agonist for each concentration of present compound; the EC50 values for the agonist at each concentration of compound were determined by non-linear curve fitting. […]

EC50: > 10 µM
Compound: C[C@H](NC(=O)c1ccc(OCc2cccc(F)c2)nc1)C1CCCCC1
